Laboratory results taken from patent publication US8168592B2 (Amgen Inc., priority 2005, dated 2012).
Read-outs that look alike come from different tables or passages of the source. Blank lines part the entries; values can stand above or below the molecule they belong to.

Protein sequences, listed by entry. Tags and fused reporters are not part of them. Residues count along the entry.
UniProt O60894, 27-148: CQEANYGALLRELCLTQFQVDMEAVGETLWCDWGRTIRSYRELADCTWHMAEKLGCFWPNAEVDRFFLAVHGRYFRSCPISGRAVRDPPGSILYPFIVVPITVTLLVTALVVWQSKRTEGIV
UniProt Q16602, 23-461: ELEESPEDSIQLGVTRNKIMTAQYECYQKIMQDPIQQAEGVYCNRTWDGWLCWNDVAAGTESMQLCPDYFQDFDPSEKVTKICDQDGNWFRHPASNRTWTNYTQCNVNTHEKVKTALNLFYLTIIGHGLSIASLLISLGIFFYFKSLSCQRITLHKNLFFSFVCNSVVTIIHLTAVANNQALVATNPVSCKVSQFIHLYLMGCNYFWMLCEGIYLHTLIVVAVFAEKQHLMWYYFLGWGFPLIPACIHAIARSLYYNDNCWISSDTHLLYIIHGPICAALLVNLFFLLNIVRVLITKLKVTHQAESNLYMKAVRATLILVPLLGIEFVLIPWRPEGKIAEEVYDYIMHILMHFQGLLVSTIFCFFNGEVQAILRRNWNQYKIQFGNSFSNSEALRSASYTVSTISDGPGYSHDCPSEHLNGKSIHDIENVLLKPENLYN

Legend:
[1] = target: T1, CGRP1 receptor (Homo sapiens, UniProt O60894+Q16602); test: in vitro CGRP1 receptor mediated cAMP assay in SK-N-MC cells; format: cell-based
T1 construct: SK-N-MC cells express CRLR and RAMP1, which form CGRP1 receptor; endogenous in cells; host or cells: SK-N-MC human neuroblastoma cells
Protocol: The in vitro cAMP assay employed a human neuroblastoma-derived cell line (SK-N-MC). SK-N-MC cells express CRLR and RAMP1, which form CGRP1 receptor. CGRP1 receptor is a G-protein coupled receptor linked to the stimulatory G-protein, Gs. […] Briefly, two days before the assay, the cells were plated in 96-well plates in growth medium. On the day of the assay cells were rinsed with PBS followed by the addition of 60 μl of plasma free medium for 15 minutes at room temperature. […] The medium was then removed and the cells were lysed with 100 μl lysis buffer for 30 minutes at 37° C. for 30 minutes. Using a Tropix ELISA kit (Applied Biosystems, Foster City, Calif.), a cAMP-AP conjugate was diluted (1:100) and added (30 μl) to each well of a 96-well ELISA plate. An aliquot of the lysis buffer from the cell plate was then added to the ELISA plate followed by an aliquot of the cAMP antibody. This mixture was incubated for 1 hour at room temperature with gentle shaking. The ELISA plate was then washed 6× with wash buffer followed by the additions of a substrate enhancer. This mixture was incubated for 30 minutes at room temperature and then read on a MicroBeta Jet or EnVision plate reader. The results were analyzed using Prism (GraphPad).

[2] = in vitro stability in 10% rat plasma, LC-MS/MS; format: in vitro ADME; details: room temperature
Protocol: (§1) Consequently, the stability of select, non-PEGylated analogs was evaluated in vitro in the presence of 10% rat or human plasma. Briefly, samples of each peptide were diluted to 100 ng/ml into PBS containing 10% of rat or human plasma. Each sample was then incubated at room temperature and analyzed by LC-MS/MS to quantitate the intact peptide remaining at select time points over 6 hours.
(§2) The CGRP peptide analogs tested were the di-substituted (R11hR/R18hR) analog (Table 7, SEQ ID NO:25), the di-substituted (R11Cit/R18Cit) analog (Table 7, SEQ ID NO:31), the di-substituted (R11Q/R18Q) analog (Table 7, SEQ ID NO:39), the mono-substituted (R18Q) analog (Table 7, SEQ ID NO:37) and as a control, the un-substituted (R11/R18) analog (Table 4, SEQ ID NO:7).

[3] = in vitro stability in 10% human plasma, LC-MS/MS; format: in vitro ADME; details: room temperature
Protocol: as §1, §2

[4] = solubility in aqueous conjugation buffers; format: physicochemical
Protocol: Co-solvent mediated conjugation of vehicle to CGRP peptide antagonists. […] In an attempt to better solubilize these less soluble peptides during the conjugation reaction, and thereby improve conjugate yields, a variety of alcohol co-solvents were tested in the conjugation reaction.

[5] = target: T2, CGRP1 receptor (human neuroblastoma cell (SK-N-MC) membrane) (Homo sapiens, UniProt O60894+Q16602); test: CGRP1 binding assay (125I-hαCGRP displacement); details: Table 3A
T2 construct: human neuroblastoma cell (SK-N-MC) membrane suspension; purchased PerkinElmer; host or cells: SK-N-MC human neuroblastoma cell membranes (endogenous receptor)
Protocol: CGRP1 binding experiments. […] The plates were incubated at room temperature for 2 hour with shaking at 60 rpm, then the contents of each well were filtered over 0.5% polyethyleneimine (PEI)-treated (at least one hour) GF/C 96-well filter plates. The GF/C filter plates were washed 6 times with ice-cold 50 mM Tris, pH 7.5 and dried in an oven at 55 C for 1 hour. The bottoms of the GF/C plates were then sealed, and 40 μl Microscint™ 20 was added to each well, then the tops of the GF/C plates were sealed with TopSeal™-A, a press-on adhesive sealing film, and the GF/C plates were counted with TopCount NXT (Packard). The data were analyzed by using ActivityBase (IDBS) or Prizm (GraphPad) software.

[6] = read-out: time at which 50% remains (converted)
[7] = Table 2C, unconjugated peptide, read-out: Peptide IC50

Structure (SMILES): CC(=O)N[C@@H](Cc1c[nH]c2ccccc12)C(=O)N[C@H](C(=O)N[C@H](C(=O)N[C@@H](Cc1cnc[nH]1)C(=O)N[C@@H](CCCNC(N)=O)C(=O)N[C@@H](CC(C)C)C(=O)N[C@@H](C)C(=O)NCC(=O)N[C@@H](CC(C)C)C(=O)N[C@@H](CC(C)C)C(=O)N[C@@H](CO)C(=O)N[C@@H](CCCNC(N)=O)C(=O)N[C@@H](CO)C(=O)NCC(=O)NCC(=O)N[C@H](C(=O)N[C@H](C(=O)N[C@@H](CCCN=C(N)N)C(=O)N[C@@H](CCCCN)C(=O)N[C@@H](CC(N)=O)C(=O)N[C@@H](Cc1ccccc1)C(=O)N[C@H](C(=O)N1CCC[C@H]1C(=O)N[C@H](C(=O)N[C@@H](CC(=O)O)C(=O)N[C@H](C(=O)NCC(=O)N1CCC[C@H]1C(=O)N[C@@H](Cc1ccccc1)C(=O)N[C@@H](C)C(=O)N[C@@H](Cc1ccccc1)C(N)=O)C(C)C)[C@@H](C)O)C(C)C)C(C)C)C(C)C)[C@@H](C)O)C(C)C [SEQ ID NO:31]
reduced antagonist activity relative to the single-substitution analogs ([1]; non-PEGylated double substitution at R11 and R18): about 3 fold
time at which about 10% of the starting concentration remains [2]: about 5 hours
half-life at 100 ng/ml [2, 6]: ~1.5 h
time at which about 10% of the starting concentration remains [3]: about 4 hours
half-life at 100 ng/ml [3, 6]: ~1 h

Structure (SMILES): CC(=O)N[C@@H](Cc1c[nH]c2ccccc12)C(=O)N[C@H](C(=O)N[C@H](C(=O)N[C@@H](Cc1cnc[nH]1)C(=O)N[C@@H](CCCNC(N)=O)C(=O)N[C@@H](CC(C)C)C(=O)N[C@@H](C)C(=O)NCC(=O)N[C@@H](CC(C)C)C(=O)N[C@@H](CC(C)C)C(=O)N[C@@H](CO)C(=O)N[C@@H](CCCNC(N)=O)C(=O)N[C@@H](CO)C(=O)NCC(=O)NCC(=O)N[C@H](C(=O)N[C@H](C(=O)N[C@@H](CCCN=C(N)N)C(=O)N[C@@H](CCCCN)C(=O)N[C@@H](CC(N)=O)C(=O)N[C@@H](Cc1ccccc1)C(=O)N[C@H](C(=O)N1CCC[C@H]1C(=O)N[C@H](C(=O)N[C@@H](CC(=O)O)C(=O)N[C@H](C(=O)NCC(=O)N1CCC[C@H]1C(=O)N[C@@H](Cc1ccccc1)C(=O)N[C@@H](C)C(=O)N[C@@H](Cc1ccccc1)C(N)=O)C(C)C)[C@@H](C)O)C(C)C)C(C)C)C(C)C)[C@@H](C)O)C(C)C [compound 31]
Ki [5]: 0.46 nM
IC50 ([1]; Table 7, R11 and/or R18 stability analogs, with or without 20 kDa PEG, read-out: IC50): 1.8 nM
% Remaining ([2]; 100 ng/ml, 0 h): 100.0%
remaining at 0.5 h, 100 ng/ml ([2]; 100 ng/ml, 0.5 h): 82.3%
remaining at 1 h, 100 ng/ml ([2]; 100 ng/ml, 1 h): 59%
remaining at 2 h, 100 ng/ml ([2]; 100 ng/ml, 2 h): 26.1%
remaining at 3 h, 100 ng/ml ([2]; 100 ng/ml, 3 h): 18.5%
remaining at 4 h, 100 ng/ml ([2]; 100 ng/ml, 4 h): 10.1%
remaining at 5 h, 100 ng/ml ([2]; 100 ng/ml, 5 h): 5.2%
remaining at 6 h, 100 ng/ml ([2]; 100 ng/ml, 6 h): 3.3%

Structure (SMILES): CC(=O)N[C@@H](Cc1c[nH]c2ccccc12)C(=O)N[C@H](C(=O)N[C@H](C(=O)N[C@@H](Cc1cnc[nH]1)C(=O)N[C@@H](CCCNC(N)=O)C(=O)N[C@@H](CC(C)C)C(=O)N[C@@H](C)C(=O)NCC(=O)N[C@@H](CC(C)C)C(=O)N[C@@H](CC(C)C)C(=O)N[C@@H](CO)C(=O)N[C@@H](CCCNC(N)=O)C(=O)N[C@@H](CO)C(=O)NCC(=O)NCC(=O)N[C@H](C(=O)N[C@H](C(=O)N[C@@H](CCCN=C(N)N)C(=O)N[C@@H](CCCCN)C(=O)N[C@@H](CC(N)=O)C(=O)N[C@@H](Cc1ccccc1)C(=O)N[C@H](C(=O)N1CCC[C@H]1C(=O)N[C@H](C(=O)N[C@@H](CC(=O)O)C(=O)N[C@H](C(=O)NCC(=O)N1CCC[C@H]1C(=O)N[C@@H](Cc1ccccc1)C(=O)N[C@@H](C)C(=O)N[C@@H](Cc1ccccc1)C(N)=O)C(C)C)[C@@H](C)O)C(C)C)C(C)C)C(C)C)[C@@H](C)O)C(C)C [compound 790]
IC50 ([1]; Table 2D, read-out: IC50): 1.7 nM

Other lines, results leading:

% Remaining ([3]; 100 ng/ml, 0 h): 100.0%
remaining at 0.17 h, 100 ng/ml ([3]; 100 ng/ml, 0.17 h): 73%
remaining at 0.5 h, 100 ng/ml ([3]; 100 ng/ml, 0.5 h): 52.8%
remaining at 1 h, 100 ng/ml ([3]; 100 ng/ml, 1 h): 44%
remaining at 2 h, 100 ng/ml ([3]; 100 ng/ml, 2 h): 34.9%
remaining at 3 h, 100 ng/ml ([3]; 100 ng/ml, 3 h): 15.3%
remaining at 4 h, 100 ng/ml ([3]; 100 ng/ml, 4 h): 11.8%
remaining at 5 h, 100 ng/ml ([3]; 100 ng/ml, 5 h): 6.1%
remaining at 6 h, 100 ng/ml ([3]; 100 ng/ml, 6 h): 5.9%
solubility in words [4]: relatively insoluble
Structure (SMILES): CC(=O)N[C@@H](Cc1c[nH]c2ccccc12)C(=O)N[C@H](C(=O)N[C@H](C(=O)N[C@@H](Cc1cnc[nH]1)C(=O)N[C@@H](CCCNC(N)=O)C(=O)N[C@@H](CC(C)C)C(=O)N[C@@H](C)C(=O)NCC(=O)N[C@@H](CC(C)C)C(=O)N[C@@H](CC(C)C)C(=O)N[C@@H](CO)C(=O)N[C@@H](CCCNC(N)=O)C(=O)N[C@@H](CO)C(=O)NCC(=O)NCC(=O)N[C@H](C(=O)N[C@H](C(=O)N[C@@H](CCCN=C(N)N)C(=O)N[C@@H](CCCCN)C(=O)N[C@@H](CC(N)=O)C(=O)N[C@@H](Cc1ccccc1)C(=O)N[C@H](C(=O)N1CCC[C@H]1C(=O)N[C@H](C(=O)N[C@@H](CC(=O)O)C(=O)N[C@H](C(=O)NCC(=O)N1CCC[C@H]1C(=O)N[C@@H](Cc1ccccc1)C(=O)N[C@@H](C)C(=O)N[C@@H](Cc1ccccc1)C(N)=O)C(C)C)[C@@H](C)O)C(C)C)C(C)C)C(C)C)[C@@H](C)O)C(C)C [SEQ ID NO: 31]

IC50 [1, 7]: 1.8 nM
Structure (SMILES): CC(=O)N[C@@H](Cc1c[nH]c2ccccc12)C(=O)N[C@H](C(=O)N[C@H](C(=O)N[C@@H](Cc1cnc[nH]1)C(=O)N[C@@H](CCCNC(N)=O)C(=O)N[C@@H](CC(C)C)C(=O)N[C@@H](C)C(=O)NCC(=O)N[C@@H](CC(C)C)C(=O)N[C@@H](CC(C)C)C(=O)N[C@@H](CO)C(=O)N[C@@H](CCCNC(N)=O)C(=O)N[C@@H](CO)C(=O)NCC(=O)NCC(=O)N[C@H](C(=O)N[C@H](C(=O)N[C@@H](CCCN=C(N)N)C(=O)N[C@@H](CCCCN)C(=O)N[C@@H](CC(N)=O)C(=O)N[C@@H](Cc1ccccc1)C(=O)N[C@H](C(=O)N1CCC[C@H]1C(=O)N[C@H](C(=O)N[C@@H](CC(=O)O)C(=O)N[C@H](C(=O)NCC(=O)N1CCC[C@H]1C(=O)N[C@@H](Cc1ccccc1)C(=O)N[C@@H](C)C(=O)N[C@@H](Cc1ccccc1)C(N)=O)C(C)C)[C@@H](C)O)C(C)C)C(C)C)C(C)C)[C@@H](C)O)C(C)C [compound 863]

IC50 [1, 7]: 0.97 nM
Structure (SMILES): CC(=O)N[C@@H](Cc1c[nH]c2ccccc12)C(=O)N[C@H](C(=O)N[C@H](C(=O)N[C@@H](Cc1c[nH]cn1)C(=O)N[C@@H](CCCNC(N)=O)C(=O)N[C@@H](CC(C)C)C(=O)N[C@@H](C)C(=O)NCC(=O)N[C@@H](CC(C)C)C(=O)N[C@@H](CC(C)C)C(=O)N[C@@H](CO)C(=O)N[C@@H](CCCNC(N)=O)C(=O)N[C@@H](CO)C(=O)NCC(=O)NCC(=O)N[C@H](C(=O)N[C@H](C(=O)N[C@@H](Cc1ccc(NC(=N)N)cc1)C(=O)N[C@@H](CCCCN)C(=O)N[C@@H](CC(N)=O)C(=O)N[C@@H](Cc1ccccc1)C(=O)N[C@H](C(=O)N1CCC[C@H]1C(=O)N[C@H](C(=O)N[C@@H](CC(=O)O)C(=O)N[C@H](C(=O)NCC(=O)N1CCC[C@H]1C(=O)N[C@@H](Cc1ccccc1)C(=O)N[C@@H](C)C(=O)N[C@@H](Cc1ccccc1)C(N)=O)C(C)C)[C@@H](C)O)C(C)C)C(C)C)C(C)C)[C@@H](C)O)C(C)C [compound 939]
